From patent US10213415B2, “Compounds as opioid receptor modulators” (JANSSEN PHARMACEUTICA NV, priority 2004, dated 2019)

Amino acid sequences for entries named in this document (tags omitted).
UniProt P33535, whole entry: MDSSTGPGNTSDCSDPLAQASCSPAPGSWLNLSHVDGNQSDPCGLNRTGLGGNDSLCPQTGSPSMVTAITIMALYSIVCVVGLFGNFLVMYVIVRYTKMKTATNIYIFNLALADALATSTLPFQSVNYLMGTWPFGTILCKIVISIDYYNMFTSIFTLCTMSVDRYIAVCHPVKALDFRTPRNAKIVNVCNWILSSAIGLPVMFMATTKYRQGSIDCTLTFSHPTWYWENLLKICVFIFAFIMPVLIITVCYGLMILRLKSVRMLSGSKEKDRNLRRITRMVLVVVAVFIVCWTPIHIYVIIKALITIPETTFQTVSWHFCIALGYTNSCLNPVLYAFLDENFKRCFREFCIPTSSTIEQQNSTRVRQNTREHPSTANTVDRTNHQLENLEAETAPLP
UniProt P33533, whole entry: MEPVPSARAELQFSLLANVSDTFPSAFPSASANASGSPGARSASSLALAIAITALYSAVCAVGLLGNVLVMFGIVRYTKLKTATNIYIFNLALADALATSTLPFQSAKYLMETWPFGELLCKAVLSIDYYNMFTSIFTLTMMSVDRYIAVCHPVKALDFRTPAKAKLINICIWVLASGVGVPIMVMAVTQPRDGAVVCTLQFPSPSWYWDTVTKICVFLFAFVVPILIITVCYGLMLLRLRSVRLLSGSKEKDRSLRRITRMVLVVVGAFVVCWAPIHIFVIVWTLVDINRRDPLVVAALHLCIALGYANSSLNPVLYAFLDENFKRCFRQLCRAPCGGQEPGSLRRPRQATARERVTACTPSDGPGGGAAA
UniProt P35372, whole entry: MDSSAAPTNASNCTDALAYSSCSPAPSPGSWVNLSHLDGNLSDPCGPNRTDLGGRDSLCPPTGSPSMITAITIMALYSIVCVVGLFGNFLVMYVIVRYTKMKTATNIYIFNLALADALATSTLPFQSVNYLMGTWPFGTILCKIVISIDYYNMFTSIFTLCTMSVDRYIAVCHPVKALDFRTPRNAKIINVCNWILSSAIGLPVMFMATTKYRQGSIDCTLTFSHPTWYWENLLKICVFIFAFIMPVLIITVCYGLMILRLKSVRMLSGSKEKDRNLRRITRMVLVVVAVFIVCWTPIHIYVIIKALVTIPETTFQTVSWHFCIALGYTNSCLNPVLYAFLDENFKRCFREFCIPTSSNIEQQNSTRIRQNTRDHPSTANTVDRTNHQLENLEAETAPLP

Legend:
[1] = biological target: mu opioid receptor (Rattus norvegicus, UniProt P33535); test: Rat Brain Mu Opioid Receptor Binding Assay (and Version 2a, [3H]DAMGO); conditions: read-out: r Ki μ, rat forebrain membranes, margin of error 10-20%
[2] = biological target: delta opioid receptor (Rattus norvegicus, UniProt P33533); test: Rat Brain Delta Opioid Receptor Binding Assay ([3H]DPDPE); conditions: read-out: r Ki δ, rat forebrain membranes, margin of error 10-20%
Experimental: Male, Wistar rats (150-250 g, VAF, Charles River, Kingston, N.Y.) are killed by cervical dislocation, and their brains removed and placed immediately in ice cold Tris HCl buffer (50 mM, pH 7.4). The forebrains are separated from the remainder of the brain by a coronal transection, beginning dorsally at the colliculi and passing ventrally through the midbrain-pontine junction. After dissection, the forebrains are homogenized in Tris buffer in a Teflon® glass homogenizer. The homogenate is diluted to a concentration of 1 g of forebrain tissue per 80 mL Tris and centrifuged at 39,000×g for 10 min. The pellet is resuspended in the same volume of Tris buffer containing 5 mM MgCl2 with several brief pulses from a Polytron homogenizer. This particulate preparation is used for the delta opioid binding assays. Following incubation with the delta selective peptide ligand ˜4 nM [^3H]DPDPE at 25° C. for 2.5 h in a 96-well plate with total volume of 1 mL, the plate contents are filtered through Wallac filtermat B sheets on a Tomtec 96-well harvester. The filters are rinsed three times with 2 mL of 10 mM HEPES (pH 7.4), and dried in a microwave oven 2 min twice. To each sample area 2×50 μL of Betaplate Scint scintillation fluid (LKB) is added and analyzed on a LKB (Wallac) 1205 BetaPlate liquid scintillation counter.
The data are used to calculate either the % inhibition compared to control binding (when only a single concentration of test compound is evaluated) or a Ki value (when a range of concentrations is tested). % inhibition is calculated as: [(total dpm−test compound dpm)/(total dpm−nonspecific dpm)]*100. Kd and Ki values were calculated using GraphPad PRISM data analysis program.

[3] = system: novel environment-stressed mice; test: In Vivo Assay-Stress-Induced Fecal Output (Fecal Output for 1 hr); conditions: for Fecal Output (# pellets) cpd: novel environment-stressed mice; for Fecal Output (# pellets) cpd / Fecal Output cpd % control / Fecal Output cpd % NES: 1 hr; for Fecal Output cpd % control: relative to acclimated control; for Fecal Output cpd % NES: relative to novel environment stress (NES) vehicle group
Text: This assay evaluates the fecal output in novel environment-stressed mice to that of acclimated controls.
Methods: Adult, male, Crl:CD-1(ICR) mice, weighing ˜30-35 g were used in these studies, with a minimum of 10 mice per dose group. One group of mice was assigned as acclimated, or “non-stressed” controls. These control mice were transported from colony housing, where they were housed 3/cage in polycarbonate cages with access to food and water ad lib. to the procedure room. The mice were removed from their home cages and individually housed in 20 cm wide×20 cm deep×15 cm tall cages, equipped with a wire mesh bottom where they remained for a 16-18 hr period of acclimation to their novel environment. Mice were allowed access to food and water ad lib. during acclimation. The other groups of mice were assigned as non-acclimated, or “stressed” treatment groups. Each mouse in each group was weighed and vehicle, or test compound, was intragastrically administered by oral intubation in 0.5% methylcellulose. Mice were allowed access to water only ad lib. during the test period. After compound administrations, acclimated (control) as well as non-acclimated (stressed) mice were individually housed in a 20 cm wide×20 cm deep×15 cm tall cage, with a wire mesh bottom. An absorbant cardboard is placed beneath the cages. The number of fecal pellets excreted by each mouse was determined at hourly intervals following placement of the mice in the individual cages. Raw Data=# of fecal pellets/mouse/hr. […]

[4] = biological target: delta opioid receptor (CHO-hδ cell membranes) (Homo sapiens, UniProt P41143); test: Delta Opioid Receptor Functional Assay: [35S]GTPγS Binding in CHO-hδ Cell Membranes, Version 1; conditions: read-out: DOR GTP-binding Assay_v1 EC50
Experimental: CHO-hδ cell membranes were purchased from Receptor Biology, Inc. (Baltimore, Md.). 10 mg/ml of membrane protein suspended in 10 mM TRIS-HC pH 7.2, 2 mM EDTA, 10% sucrose.
Membranes were maintained at 4-8° C. A portion (1 ml) of membranes was added into 15 mL cold binding assay buffer. The assay buffer contained 50 mM HEPES, pH 7.6, 5 mM MgCl2, 100 mM NaCl, 1 mM DTT and 1 mM EDTA. The membrane suspension was homogenized with a Polytron for 2 times and centrifuged at 3000 rpm for 10 min. The supernent was then centrifuged at 18,000 rpm for 20 min. The pellet was saved in a tube and 10 ml assay buffer was added into the tube. The pellet and buffer were mixed with a Polytron.
The pellet membranes (20 μg/ml) were preincubated with SPA (10 mg/ml) at 25° C. for 45 min in the assay buffer. The SPA (5 mg/ml) coupled with membranes (10 μg/ml) was then incubated with 0.5 nM [^35S]GTPγS in the same HEPES buffer containing 50 μM GDP in total volume of 200 μl. Increasing concentrations of receptor agonists were used to stimulate [^35S]GTPγS binding. The basal binding was tested in the absent agonists and no specific binding was tested in the present 10 μM unlabeled GTPγS. The data were analyzed on a Top counter.
Data The % of Basal=(stimulate−non specific)*100/(basal−non specific). EC50 values were calculated using a Prism program.

[5] = biological target: mu opioid receptor (CHO-hMOR cell membranes) (Homo sapiens, UniProt P35372); test: Mu Opioid Receptor Functional Assay: [35S]GTPγS Binding in CHO-hMOR Cell Membranes, Versions 1 and 2; conditions: for MOR GTP binding assay_v1 (% I): version 1, % inhibition of agonist-stimulated GTPγS binding; for MOR GTP assay_v1 % of Basal: version 1, basal binding = 100%
Experimental: CHO-hMOR cell membranes were purchased from Receptor Biology, Inc. (Baltimore, Md.). About 10 mg/ml of membrane protein was suspended in 10 mM TRIS-HCl pH 7.2, 2 mM EDTA, 10% sucrose, and the suspension kept on ice. One ml of membranes was added to 15 ml cold binding assay buffer containing 50 mM HEPES, pH 7.6, 5 mM MgCl2, 100 mM NaCl, 1 mM DTT and 1 mM EDTA. The membrane suspension was homogenized with a Polytron and centrifuged at 3,000 rpm for 10 min. The supernatant was then centrifuged at 18,000 rpm for 20 min. The pellet was resuspended in 10 ml assay buffer with a Polytron.
The membranes were preincubated with wheat germ agglutinin coated SPA beads (Amersham) at 25° C. for 45 min in the assay buffer. The SPA bead (5 mg/ml) coupled membranes (10 μg/ml) were then incubated with 0.5 nM [^35S]GTPγS in the assay buffer. […] A range of concentrations of receptor agonists was used to stimulate [^35S]GTPγS binding. Both basal and non-specific binding was tested in the absence of agonist; non-specific binding determination included 10 μM unlabeled GTPγS.
Compounds were tested for function as antagonists by evaluating their potential to inhibit agonist-stimulated GTPγS binding. Radioactivity was quantified on a Packard TopCount. The following parameters were calculated:
[formula] % Inhibition=(% stimulation by 1 μM SNC80−% stimulation by 1 μM SNC80 in presence of test compound)×100/(% Stimulation by 1 μM SNC80−100)
EC50 values were calculated using GraphPad Prism.

[6] = biological target: human mu opioid receptor (Homo sapiens, UniProt P35372); test: Human Mu Opioid Receptor Binding Assay (CHO membranes, 3H-Damgo); conditions: read-out: hKi μ
[7] = biological target: human delta subtype 2 opioid receptor (Homo sapiens, UniProt P41143); test: Human Delta Opioid Receptor Binding Assay (CHO membranes, 3H-Naltrindole); conditions: read-out: hKi δ
Experimental: This assay is designed to test the ability of a compound to interfere with the binding of tritiated Naltrindole to the human delta subtype 2 opioid receptor. Membranes from Chinese Hamster Ovary cells expressing the human delta subtype 2 opioid receptor (Perkin Elmer #RBHODM400UA) are homogenized in assay buffer (50 mM Tris, pH 7.5 with 5 mM MgCl2) using a glass tissue grinder, Teflon pestle and a Steadfast Stirrer (Fisher Scientific). The concentration of membranes is adjusted to 100 μg/mL in assay buffer and 100 μL is dispensed into each well of the assay plate, a 96 well round bottom polypropylene plate. Compounds to be tested are solubilized in DMSO (Pierce), 10 mM, then diluted in assay buffer to 6× the desired final concentration. The ligand, ^3H-Naltrindole (Perkin Elmer #NET-1065) is also diluted in assay buffer to 6 nM. In a second 96 well round bottom polypropylene plate, known as the premix plate, 60 μL of the 6× compound is combined with 60 μL of 6 nM ^3H-Naltrindole. From this premix plate 50 μL is transferred to the assay plate containing the membranes, in duplicate. The assay plate is incubated for 30 min at room temperature. A GF/C 96 well filter plate (Perkin Elmer #6005174) is pretreated with 0.3% polyethylenimine for 30 min. […] Nonspecific binding is determined in the presence of 1 μM unlabelled Naltrindole (Sigma #N115).

Row | SMILES | pKi [1] | pKi [2] | Fecal Output (# pellets) cpd ([3]; 30 mg/kg oral) [pellets] | Fecal Output cpd % control ([3]; 30 mg/kg oral) [%] | Fecal Output cpd % NES ([3]; 30 mg/kg oral) [%] | pEC50 [4] | MOR GTP binding assay_v1 (% I) [5] [%] | MOR GTP assay_v1 % of Basal [5] [%] | pKi [6] | pKi [7] | further results
1 | Cc1cc(O)cc(C)c1C[C@H](N)C(=O)N(C(C)C)[C@H](C)c1nc(-c2ccccc2)c[nH]1 | 9.06 | 8.59 | 5.0 | 160.7 | 104.2 | 7.25 | 1.00 | 495.00 |  |  | 
2 | Cc1cc(O)cc(C)c1C[C@H](N)C(=O)N(C(C)C)[C@@H](C)c1nc(-c2ccccc2)c[nH]1 | 10.52 | 8.85 |  |  |  |  | 1.00 | 694.00 | 9.19 | 7.09 | Fecal Output (# pellets) cpd ([3]; 10 mg/kg oral): 3.5 pellets; Fecal Output cpd % control ([3]; 10 mg/kg oral): 97.2%; Fecal Output cpd % NES ([3]; 10 mg/kg oral): 50.7%; # of pellets, Compound (m) 1.0 ([3]; dose 1.0, oral, NES mice, fecal output 1 hr): 7.6; Fecal pellet output, Compound (% control) 1.0 ([3]; dose 1.0, oral, NES mice, vs acclimated control): 345.5 % control; Fecal pellet output, Compound (% NES) 1.0 ([3]; dose 1.0, oral, vs vehicle NES group): 79.17 % NES; # of pellets, Compound (m) 3.0 ([3]; dose 3.0, oral, NES mice, fecal output 1 hr): 7.2; Fecal pellet output, Compound (% control) 3.0 ([3]; dose 3.0, oral, NES mice, vs acclimated control): 327.3 % control; Fecal pellet output, Compound (% NES) 3.0 ([3]; dose 3.0, oral, vs vehicle NES group): 75 % NES; # of pellets, Compound (m) 10.0 ([3]; dose 10.0, oral, NES mice, fecal output 1 hr): 4.2; Fecal pellet output, Compound (% control) 10.0 ([3]; dose 10.0, oral, NES mice, vs acclimated control): 190.9 % control; Fecal pellet output, Compound (% NES) 10.0 ([3]; dose 10.0, oral, vs vehicle NES group): 43.75 % NES
3 | CNC(=O)c1cc(C)c(C[C@H](N)C(=O)N(C)[C@@H](C)c2nc(-c3ccccc3)c[nH]2)c(C)c1 | 8.40 | 6.22 |  |  |  | 5.63 | 27.00 | 962.00 |  |  | 
4 | Cc1cc(O)cc(C)c1C[C@H](N)C(=O)N(Cc1cccc(C(N)=O)c1)[C@@H](C)c1nc(-c2ccccc2)c[nH]1 |  |  | 10.3 | 332.3 | 79.8 |  |  |  | 9.15 | 8.18 | 

pEC50, pKi: −log10 of the molar value.
